Target: Full-length PRMT5 enzyme (NCBI Reference sequence NP_006100.2) co-expressed with His6-MEP50 (Homo sapiens (Human), UniProt O14744)
Assay: PRMT5 Biochemical Assay
Conditions: histone H4 derived peptide substrate 200 nM, 1 μM S-Adenosyl methionine, 4 hours at 37° C., Transcreener EPIGEN fluorescence polarisation
Description: Compounds of the invention may be tested for in vitro activity in the following assay: A histone H4 derived peptide is used as substrate (amino acid sequence: […]N H2). Full-length PRMT5 enzyme (NCBI Reference sequence NP_006100.2) was co-expressed with His6-MEP50 in insect cells and purified via Nickel immobilized metal affinity and gel filtration chromatography (“the enzyme”).
The 6 μL assay reactions are run in Greiner brand black 384-well low volume plates. All reactions contained assay buffer (phosphate buffered saline, 0.01% (v/v) Tween-20, 0.01% (w/v) albumin from chicken egg white, 1 mM dithiothreitol, 200 nM peptide substrate, 1 μM S-Adenosyl methionine, and 15 ng/reaction enzyme, with the enzyme being omitted from negative control reactions. Compounds were added in a volume of 100 nL from dilution series prepared in DMSO, positive and negative control reactions receiving the same volume DMSO without compound. The plates were sealed with adhesive seals and incubated for 4 hours at 37° C. Reaction progress was measured using the Transcreener™ EPIGEN methyltransferase assay (BellBrook Labs, Madison, Wis.) as recommended by the manufacturer. To each reaction 2 μL detection mix were added, containing coupling enzymes, fluorescence polarisation tracer, and AMP antibody. […]

Amino acid sequences for entries named in this document (tags omitted).
UniProt O14744, whole entry: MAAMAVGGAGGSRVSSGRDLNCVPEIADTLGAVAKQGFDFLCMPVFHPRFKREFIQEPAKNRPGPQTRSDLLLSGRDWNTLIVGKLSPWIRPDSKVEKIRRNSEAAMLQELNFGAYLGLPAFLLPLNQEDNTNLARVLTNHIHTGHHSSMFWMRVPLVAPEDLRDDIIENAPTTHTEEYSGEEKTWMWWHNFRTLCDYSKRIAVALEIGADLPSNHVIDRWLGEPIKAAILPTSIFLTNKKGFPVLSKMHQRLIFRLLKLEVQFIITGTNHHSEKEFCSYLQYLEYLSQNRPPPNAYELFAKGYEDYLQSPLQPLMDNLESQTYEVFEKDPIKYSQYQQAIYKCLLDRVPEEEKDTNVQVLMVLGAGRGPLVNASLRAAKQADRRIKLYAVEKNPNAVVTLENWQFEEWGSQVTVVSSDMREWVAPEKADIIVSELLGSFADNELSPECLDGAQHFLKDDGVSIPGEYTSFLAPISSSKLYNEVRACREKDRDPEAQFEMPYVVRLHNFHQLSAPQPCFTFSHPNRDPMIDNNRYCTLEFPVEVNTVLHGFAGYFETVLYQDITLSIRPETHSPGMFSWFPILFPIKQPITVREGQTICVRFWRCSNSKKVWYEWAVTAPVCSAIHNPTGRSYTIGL

- IC50: 2.01 µM
Structure (SMILES): CCS(=O)(=O)N1CCN(c2ccc3nc(-c4ccc(OCc5ccccc5)c(-c5cn[nH]c5)c4)[nH]c3n2)CC1 [Example 73]
